Laboratory results published in US8524809B2, “Low odor compositions and methods to attain low odor compositions” (Rohm and Haas Company, priority 2010, dated 2013).

Assay: Nucleophilic reagents: aldehyde content in vinyl acetate-acrylic latex
Settings: Rovace 9900 pre-treated 1 week with 50 ppm N51032; reagent 50 ppm, 55° C. 2 hours, then 1 week RT

C1CN1
Acetaldehyde Headspace Concentration: 175 ppm
Acetone Headspace Concentration: 247 ppm
Ethanol Headspace Concentration: 21 ppm
butanal Headspace Concentration: 1 ppm
l-butanol Headspace Concentration: 59 ppm
t-butanol Headspace Concentration: 274 ppm
